This experiment concerns the target RyR2 (Homo sapiens, UniProt Q92736). As to the kind of experiment: biochemical.

Amino acid sequences for entries named in this document (tags omitted).
UniProt Q92736, whole entry: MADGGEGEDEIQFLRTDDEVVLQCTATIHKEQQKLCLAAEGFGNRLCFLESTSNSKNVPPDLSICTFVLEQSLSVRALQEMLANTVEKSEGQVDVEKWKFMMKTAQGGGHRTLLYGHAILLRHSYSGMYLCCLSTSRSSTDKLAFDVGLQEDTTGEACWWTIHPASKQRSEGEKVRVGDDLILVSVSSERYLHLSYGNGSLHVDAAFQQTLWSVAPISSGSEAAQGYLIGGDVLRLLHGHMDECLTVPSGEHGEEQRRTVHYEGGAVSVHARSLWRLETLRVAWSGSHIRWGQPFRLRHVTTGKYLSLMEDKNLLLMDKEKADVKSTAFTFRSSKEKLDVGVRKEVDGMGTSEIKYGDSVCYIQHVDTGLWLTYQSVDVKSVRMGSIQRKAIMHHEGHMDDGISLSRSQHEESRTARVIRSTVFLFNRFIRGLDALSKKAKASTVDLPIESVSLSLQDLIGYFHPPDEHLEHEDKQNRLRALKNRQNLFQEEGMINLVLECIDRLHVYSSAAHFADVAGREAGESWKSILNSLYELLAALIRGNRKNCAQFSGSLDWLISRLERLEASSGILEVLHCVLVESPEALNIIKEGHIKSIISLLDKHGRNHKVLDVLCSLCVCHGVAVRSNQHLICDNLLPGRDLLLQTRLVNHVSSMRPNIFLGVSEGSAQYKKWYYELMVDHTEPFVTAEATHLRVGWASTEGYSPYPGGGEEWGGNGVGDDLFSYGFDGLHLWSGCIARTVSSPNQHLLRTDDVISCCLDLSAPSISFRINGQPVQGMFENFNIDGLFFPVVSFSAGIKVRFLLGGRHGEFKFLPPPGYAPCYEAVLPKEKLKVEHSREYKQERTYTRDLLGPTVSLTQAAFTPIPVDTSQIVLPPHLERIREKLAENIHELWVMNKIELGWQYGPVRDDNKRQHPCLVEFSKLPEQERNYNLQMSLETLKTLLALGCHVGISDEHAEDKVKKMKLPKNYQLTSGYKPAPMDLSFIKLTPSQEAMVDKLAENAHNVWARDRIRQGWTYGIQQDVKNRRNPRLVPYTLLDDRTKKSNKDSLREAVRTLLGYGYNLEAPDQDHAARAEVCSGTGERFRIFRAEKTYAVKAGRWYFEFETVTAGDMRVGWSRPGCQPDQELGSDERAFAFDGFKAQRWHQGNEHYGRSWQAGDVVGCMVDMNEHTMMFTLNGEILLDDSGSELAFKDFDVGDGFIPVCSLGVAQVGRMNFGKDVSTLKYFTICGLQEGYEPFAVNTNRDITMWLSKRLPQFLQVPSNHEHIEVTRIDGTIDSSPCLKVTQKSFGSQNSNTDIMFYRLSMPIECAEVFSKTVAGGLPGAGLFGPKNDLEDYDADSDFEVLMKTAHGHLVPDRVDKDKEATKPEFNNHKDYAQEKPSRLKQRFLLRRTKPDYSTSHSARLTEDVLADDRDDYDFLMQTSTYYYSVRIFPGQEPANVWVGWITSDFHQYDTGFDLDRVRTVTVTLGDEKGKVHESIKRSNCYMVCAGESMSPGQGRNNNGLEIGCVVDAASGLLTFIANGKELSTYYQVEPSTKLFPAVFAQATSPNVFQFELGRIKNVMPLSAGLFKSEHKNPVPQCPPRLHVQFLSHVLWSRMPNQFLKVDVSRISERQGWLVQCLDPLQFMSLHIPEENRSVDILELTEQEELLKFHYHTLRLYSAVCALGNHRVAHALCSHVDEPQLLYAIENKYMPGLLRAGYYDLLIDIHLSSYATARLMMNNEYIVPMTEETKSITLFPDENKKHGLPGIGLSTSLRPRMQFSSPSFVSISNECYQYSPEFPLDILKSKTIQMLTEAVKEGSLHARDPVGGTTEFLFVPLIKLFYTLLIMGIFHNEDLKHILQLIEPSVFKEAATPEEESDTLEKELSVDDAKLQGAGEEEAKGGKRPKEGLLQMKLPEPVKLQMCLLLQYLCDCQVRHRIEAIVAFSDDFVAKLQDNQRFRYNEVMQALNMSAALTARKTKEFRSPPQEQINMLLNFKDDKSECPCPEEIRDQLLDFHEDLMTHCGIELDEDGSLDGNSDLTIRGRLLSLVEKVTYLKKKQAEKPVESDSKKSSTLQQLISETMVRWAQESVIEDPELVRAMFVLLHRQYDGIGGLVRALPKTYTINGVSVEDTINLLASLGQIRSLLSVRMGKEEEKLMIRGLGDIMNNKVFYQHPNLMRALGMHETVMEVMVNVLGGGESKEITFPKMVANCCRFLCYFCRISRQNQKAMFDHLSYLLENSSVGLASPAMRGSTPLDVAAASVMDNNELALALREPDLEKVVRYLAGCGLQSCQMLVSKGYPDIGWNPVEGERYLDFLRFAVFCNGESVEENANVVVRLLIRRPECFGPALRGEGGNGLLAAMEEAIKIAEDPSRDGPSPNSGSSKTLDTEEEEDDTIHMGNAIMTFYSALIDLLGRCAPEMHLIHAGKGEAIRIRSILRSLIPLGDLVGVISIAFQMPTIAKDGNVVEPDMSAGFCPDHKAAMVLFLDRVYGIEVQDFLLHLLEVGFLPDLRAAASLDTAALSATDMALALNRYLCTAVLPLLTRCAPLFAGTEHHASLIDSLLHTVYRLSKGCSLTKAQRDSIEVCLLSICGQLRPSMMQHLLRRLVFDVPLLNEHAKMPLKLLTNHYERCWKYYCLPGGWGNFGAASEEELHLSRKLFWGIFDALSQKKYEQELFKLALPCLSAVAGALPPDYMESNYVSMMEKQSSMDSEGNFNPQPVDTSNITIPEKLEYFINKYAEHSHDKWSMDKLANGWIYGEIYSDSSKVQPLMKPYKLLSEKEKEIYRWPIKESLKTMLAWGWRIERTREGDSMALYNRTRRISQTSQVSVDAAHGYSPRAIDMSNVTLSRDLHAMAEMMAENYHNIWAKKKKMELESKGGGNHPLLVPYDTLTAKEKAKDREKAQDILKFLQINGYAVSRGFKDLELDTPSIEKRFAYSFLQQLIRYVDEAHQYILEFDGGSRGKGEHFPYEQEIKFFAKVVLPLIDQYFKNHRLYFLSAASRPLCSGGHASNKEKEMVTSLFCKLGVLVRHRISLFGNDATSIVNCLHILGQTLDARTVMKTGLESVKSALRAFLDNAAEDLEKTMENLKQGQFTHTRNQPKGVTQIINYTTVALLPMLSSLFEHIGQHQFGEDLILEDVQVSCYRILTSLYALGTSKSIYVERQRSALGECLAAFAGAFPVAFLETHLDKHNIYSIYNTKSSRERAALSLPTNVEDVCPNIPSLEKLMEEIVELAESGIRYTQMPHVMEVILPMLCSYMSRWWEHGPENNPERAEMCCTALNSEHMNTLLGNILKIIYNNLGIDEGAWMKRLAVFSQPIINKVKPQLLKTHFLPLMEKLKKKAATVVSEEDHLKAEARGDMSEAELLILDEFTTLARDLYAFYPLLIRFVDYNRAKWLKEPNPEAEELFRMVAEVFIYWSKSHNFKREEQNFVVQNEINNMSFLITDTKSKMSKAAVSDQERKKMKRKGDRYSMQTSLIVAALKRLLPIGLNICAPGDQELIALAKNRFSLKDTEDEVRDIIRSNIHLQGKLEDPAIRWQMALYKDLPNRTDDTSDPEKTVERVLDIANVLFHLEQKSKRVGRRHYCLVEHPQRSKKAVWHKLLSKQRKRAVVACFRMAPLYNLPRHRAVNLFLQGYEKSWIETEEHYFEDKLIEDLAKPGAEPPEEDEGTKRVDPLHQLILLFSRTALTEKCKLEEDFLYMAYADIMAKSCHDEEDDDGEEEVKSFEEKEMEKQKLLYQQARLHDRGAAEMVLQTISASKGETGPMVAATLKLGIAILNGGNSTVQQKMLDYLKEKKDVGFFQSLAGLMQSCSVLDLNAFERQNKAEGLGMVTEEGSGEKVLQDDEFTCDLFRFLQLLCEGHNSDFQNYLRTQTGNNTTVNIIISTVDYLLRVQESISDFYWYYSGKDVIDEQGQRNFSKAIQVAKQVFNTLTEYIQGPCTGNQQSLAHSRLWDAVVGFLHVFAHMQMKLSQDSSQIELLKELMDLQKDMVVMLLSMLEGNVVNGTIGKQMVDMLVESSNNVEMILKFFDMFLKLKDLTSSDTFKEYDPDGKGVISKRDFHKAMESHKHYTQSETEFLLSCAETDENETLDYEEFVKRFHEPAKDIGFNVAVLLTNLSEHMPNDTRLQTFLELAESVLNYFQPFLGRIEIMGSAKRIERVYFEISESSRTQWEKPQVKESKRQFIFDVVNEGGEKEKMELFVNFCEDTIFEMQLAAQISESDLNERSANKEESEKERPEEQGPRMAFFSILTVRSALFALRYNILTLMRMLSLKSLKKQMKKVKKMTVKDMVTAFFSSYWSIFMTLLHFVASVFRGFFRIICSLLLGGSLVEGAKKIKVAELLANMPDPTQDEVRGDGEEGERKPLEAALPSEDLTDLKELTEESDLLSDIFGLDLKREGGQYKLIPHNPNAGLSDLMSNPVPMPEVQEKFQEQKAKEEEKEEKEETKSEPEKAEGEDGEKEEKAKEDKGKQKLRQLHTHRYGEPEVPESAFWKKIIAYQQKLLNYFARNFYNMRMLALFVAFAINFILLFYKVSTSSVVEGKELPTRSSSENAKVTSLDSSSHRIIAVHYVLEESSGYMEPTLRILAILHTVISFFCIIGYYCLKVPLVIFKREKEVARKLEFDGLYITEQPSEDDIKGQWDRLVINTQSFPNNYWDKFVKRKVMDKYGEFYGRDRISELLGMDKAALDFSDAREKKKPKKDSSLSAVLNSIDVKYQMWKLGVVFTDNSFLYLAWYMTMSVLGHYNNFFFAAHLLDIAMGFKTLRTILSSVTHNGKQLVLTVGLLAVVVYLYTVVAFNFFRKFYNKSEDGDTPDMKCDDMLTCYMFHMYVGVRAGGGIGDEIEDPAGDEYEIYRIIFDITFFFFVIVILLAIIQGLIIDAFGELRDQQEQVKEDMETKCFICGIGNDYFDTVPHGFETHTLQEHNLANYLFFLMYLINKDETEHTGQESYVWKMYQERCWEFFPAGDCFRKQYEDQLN

SMILES strings stand for the structures.

A word on the EC50: it is the midpoint of the concentration-response curve. The low end stands for an effect from little substance, the high end for a need for much substance. In turn, `COc1ccc2c(c1)CN(C)CCS2` [Compound S107, reference compound] displayed an EC50 of 155 nM.
